This is an account of results in patent publication US5441932A, “Sugar compounds for inhibition of the biosynthesis of sugar chains containing sialic acid” (priority 1992, dated 1995).

The data set in a line: Solubility (physical properties). The settings on record: qualitative, in words. In kind it is physicochemical.

For the substance 6-deoxy-D-galactose-monophosphoric acid, the Solubility result is “Soluble in water, alkaline solutions, acid solutions, and various buffer solutions. Hardly soluble in organic solvents”.
